## CycPeptMPDB entries from one study

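The data file gives no further conditions (lipid, pH, time, direction or concentration), and values from different papers need not be comparable. Other peptides of the study may be missing here. Entries at the database's floor value (log10 P of -10) are not listed.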

PAMPA measures passive passage through an artificial lipid membrane. Permeability is given as log10 of P in cm/s; higher (less negative) is more permeable.

{"smiles": "CCCN1CC(=O)N[C@@H](CC(C)C)C(=O)N[C@@H](Cc2ccccc2)CC(=O)N2CCC[C@H]2C(=O)N(C)[C@H](CC(C)C)C(=O)N[C@@H](Cc2ccccc2)C(=O)N2CCC[C@@H]2C1=O", "PAMPA (log10 cm/s)": "-5.44"}
{"smiles": "CC(C)C[C@@H]1NC(=O)C[C@H](Cc2ccccc2)NC(=O)[C@@H]2CCCN2C(=O)[C@H](Cc2ccccc2)NC(=O)CN(Cc2ccccc2)C(=O)[C@@H]2CCCN2C(=O)[C@@H](CC(C)C)NC1=O", "PAMPA (log10 cm/s)": "-5.73"}
{"smiles": "CC(C)C[C@H]1NC(=O)[C@@H]2CCCN2C(=O)CN(Cc2ccccc2)C(=O)[C@H](CC(C)C)N(C)C(=O)C[C@H](Cc2ccccc2)NC(=O)[C@H]2CCCN2C(=O)[C@H](Cc2ccccc2)NC1=O", "PAMPA (log10 cm/s)": "-5.55"}
{"smiles": "CC(C)C[C@@H]1C(=O)N(C)[C@@H](CC(C)C)C(=O)N2CCC[C@@H]2C(=O)N(C)[C@@H](CC(C)C)C(=O)N[C@@H](Cc2ccccc2)C(=O)N[C@H](C)C(=O)N1C", "PAMPA (log10 cm/s)": "-4.99"}
{"smiles": "CC(C)C[C@@H]1C(=O)N[C@H](CC(C)C)C(=O)N2CCC[C@H]2C(=O)N(C)[C@@H](CC(C)C)C(=O)N[C@@H](Cc2ccccc2)C(=O)N[C@@H](Cc2ccccc2)CC(=O)N1C", "PAMPA (log10 cm/s)": "-5.11"}
{"smiles": "CCCN1CC(=O)N(Cc2ccccc2)CC(=O)N[C@@H](CC(C)C)C(=O)N2CCC[C@@H]2C(=O)N(C)[C@@H](CC(C)C)C(=O)N[C@@H](Cc2ccccc2)C(=O)N2CCC[C@@H]2C1=O", "PAMPA (log10 cm/s)": "-5.02"}
{"smiles": "CC(C)C[C@@H]1C(=O)N[C@@H](Cc2ccccc2)C(=O)N2CCC[C@H]2C(=O)N(C)[C@@H](C)C(=O)N[C@H](CC(C)C)C(=O)N(C)[C@@H](CC(C)C)C(=O)N2CCC[C@@H]2C(=O)N1C", "PAMPA (log10 cm/s)": "-5.47"}
{"smiles": "CC(C)C[C@@H]1C(=O)N(C)[C@H](CC(C)C)C(=O)N2CCC[C@H]2C(=O)N(C)[C@H](CC(C)C)C(=O)N[C@@H](Cc2ccccc2)C(=O)N2CCC[C@@H]2C(=O)N(C)[C@H](C)C(=O)N1C", "PAMPA (log10 cm/s)": "-6.21"}
{"smiles": "CC(C)C[C@@H]1NC(=O)C[C@H](Cc2ccccc2)NC(=O)[C@H]2CCCN2C(=O)[C@H](Cc2ccccc2)NC(=O)CN(Cc2ccccc2)C(=O)[C@H]2CCCN2C(=O)[C@H](CC(C)C)NC1=O", "PAMPA (log10 cm/s)": "-5.58"}
{"smiles": "CC(C)C[C@H]1NC(=O)[C@H](C)N(C)C(=O)[C@H](Cc2ccccc2)NC(=O)[C@H](CC(C)C)N(C)C(=O)[C@@H]2CCCN2C(=O)C[C@H](Cc2ccccc2)NC1=O", "PAMPA (log10 cm/s)": "-5.56"}
{"smiles": "CC(C)C[C@@H]1C(=O)N[C@@H](Cc2ccccc2)C(=O)N2CCC[C@@H]2C(=O)N[C@@H](Cc2ccccc2)CC(=O)N(C)[C@@H](CC(C)C)C(=O)N[C@@H](Cc2ccccc2)CC(=O)N2CCC[C@@H]2C(=O)N1C", "PAMPA (log10 cm/s)": "-5.55"}
{"smiles": "CC(C)C[C@@H]1NC(=O)[C@H]2CCCN2C(=O)[C@@H](CC(C)C)N(C)C(=O)[C@@H](CC(C)C)NC(=O)C[C@H](Cc2ccccc2)NC(=O)[C@H](Cc2ccccc2)NC1=O", "PAMPA (log10 cm/s)": "-5.77"}
{"smiles": "CC(C)C[C@@H]1C(=O)N[C@@H](Cc2ccccc2)C(=O)N2CCC[C@H]2C(=O)N(C)[C@H](C)C(=O)N(Cc2ccccc2)CC(=O)N[C@H](CC(C)C)C(=O)N2CCC[C@@H]2C(=O)N1C", "PAMPA (log10 cm/s)": "-5.24"}
{"smiles": "CC(C)C[C@@H]1NC(=O)[C@@H](CC(C)C)NC(=O)[C@H](C)NC(=O)[C@H](Cc2ccccc2)NC(=O)[C@@H](CC(C)C)N(C)C(=O)[C@@H]2CCCN2C1=O", "PAMPA (log10 cm/s)": "-5.94"}
{"smiles": "CC(C)C[C@@H]1C(=O)N[C@@H](Cc2ccccc2)CC(=O)N2CCC[C@H]2C(=O)N(C)[C@H](CC(C)C)C(=O)N[C@@H](Cc2ccccc2)C(=O)N2CCC[C@@H]2C(=O)N[C@@H](Cc2ccccc2)CC(=O)N1C", "PAMPA (log10 cm/s)": "-5.34"}
{"smiles": "CC(C)C[C@H]1NC(=O)[C@@H](C)NC(=O)[C@H]2CCCN2C(=O)[C@H](Cc2ccccc2)NC(=O)CN(Cc2ccccc2)C(=O)[C@H]2CCCN2C(=O)CN(Cc2ccccc2)C1=O", "PAMPA (log10 cm/s)": "-6.38"}
{"smiles": "CC(C)C[C@H]1NC(=O)[C@H]2CCCN2C(=O)[C@H](CC(C)C)N(C)C(=O)CN(Cc2ccccc2)C(=O)[C@@H](C)N(C)C(=O)[C@@H]2CCCN2C(=O)[C@H](Cc2ccccc2)NC1=O", "PAMPA (log10 cm/s)": "-5.42"}
{"smiles": "CC(C)C[C@@H]1C(=O)N2CCC[C@H]2C(=O)N(C)[C@H](CC(C)C)C(=O)N[C@@H](Cc2ccccc2)C(=O)N2CCC[C@@H]2C(=O)N[C@H](C)C(=O)N[C@H](CC(C)C)C(=O)N1C", "PAMPA (log10 cm/s)": "-6.11"}

The 2 highest values of PAMPA among the entries above:

{"smiles": "CC(C)C[C@@H]1C(=O)N(C)[C@@H](CC(C)C)C(=O)N2CCC[C@@H]2C(=O)N(C)[C@@H](CC(C)C)C(=O)N[C@@H](Cc2ccccc2)C(=O)N[C@H](C)C(=O)N1C", "PAMPA (log10 cm/s)": "-4.99"}
{"smiles": "CCCN1CC(=O)N(Cc2ccccc2)CC(=O)N[C@@H](CC(C)C)C(=O)N2CCC[C@@H]2C(=O)N(C)[C@@H](CC(C)C)C(=O)N[C@@H](Cc2ccccc2)C(=O)N2CCC[C@@H]2C1=O", "PAMPA (log10 cm/s)": "-5.02"}

Values of Townsend et al. 2020, doi:10.26434/chemrxiv.13335941.v1, as listed in CycPeptMPDB.